These are literature values, as cited in paper PMC2837949.

By UniProt entry, the sequences of proteins in these tests, tags left out. Residues count along the entry.
UniProt P16382, 26-233, chain 1 of 2: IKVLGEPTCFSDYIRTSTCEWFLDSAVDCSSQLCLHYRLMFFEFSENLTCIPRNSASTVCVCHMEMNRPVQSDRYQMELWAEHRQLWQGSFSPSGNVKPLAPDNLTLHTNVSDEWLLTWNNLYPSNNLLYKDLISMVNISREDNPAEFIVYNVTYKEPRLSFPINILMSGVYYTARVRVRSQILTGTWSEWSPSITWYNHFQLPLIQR
UniProt P07750, 21-140: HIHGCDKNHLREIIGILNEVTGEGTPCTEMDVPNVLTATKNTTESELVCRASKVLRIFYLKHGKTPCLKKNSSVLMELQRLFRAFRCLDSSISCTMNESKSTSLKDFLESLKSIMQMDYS

This data set has as its target IL-4 receptor (IL-4 receptor alpha/common gamma chain) (Mus musculus) (UniProt P16382).

Usually Kd stands for the free concentration of one partner at which half of the binding sites on the other are occupied at equilibrium, for simple one-to-one binding. As for IL-4 (from UniProt P07750), the dissociation constant (Kd) was 0.11 nM.
